# Target: β-FGF (Homo sapiens, UniProt P09038)
# Protein sequences, listed by entry. Tags and fused reporters are not part of them. Residues count along the entry.
# UniProt P09038, 143-288 limits assumed: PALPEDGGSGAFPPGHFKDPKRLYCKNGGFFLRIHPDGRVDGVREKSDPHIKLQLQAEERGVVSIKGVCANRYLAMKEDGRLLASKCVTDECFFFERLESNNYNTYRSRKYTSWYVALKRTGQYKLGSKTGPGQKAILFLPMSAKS
# UniProt Q9Y251, 36-543 K307R limits assumed: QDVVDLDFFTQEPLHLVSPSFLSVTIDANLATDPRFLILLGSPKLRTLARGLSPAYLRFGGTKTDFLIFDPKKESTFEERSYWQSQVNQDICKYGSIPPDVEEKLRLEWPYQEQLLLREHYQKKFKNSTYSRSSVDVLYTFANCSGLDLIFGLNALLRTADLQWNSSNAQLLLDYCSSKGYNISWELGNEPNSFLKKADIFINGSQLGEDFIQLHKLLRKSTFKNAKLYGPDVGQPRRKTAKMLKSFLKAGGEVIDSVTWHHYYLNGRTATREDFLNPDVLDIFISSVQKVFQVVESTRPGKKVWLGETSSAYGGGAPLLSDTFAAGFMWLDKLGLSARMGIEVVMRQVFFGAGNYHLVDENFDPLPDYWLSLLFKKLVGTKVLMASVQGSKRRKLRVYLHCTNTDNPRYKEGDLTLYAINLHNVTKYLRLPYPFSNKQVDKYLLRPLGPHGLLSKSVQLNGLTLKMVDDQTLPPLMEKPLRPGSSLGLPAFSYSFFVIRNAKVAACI
# UniProt Q9Y251, 36-109 limits assumed: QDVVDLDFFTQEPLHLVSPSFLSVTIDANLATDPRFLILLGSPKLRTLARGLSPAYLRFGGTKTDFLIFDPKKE
# UniProt Q9Y251, 158-543 K307R limits assumed: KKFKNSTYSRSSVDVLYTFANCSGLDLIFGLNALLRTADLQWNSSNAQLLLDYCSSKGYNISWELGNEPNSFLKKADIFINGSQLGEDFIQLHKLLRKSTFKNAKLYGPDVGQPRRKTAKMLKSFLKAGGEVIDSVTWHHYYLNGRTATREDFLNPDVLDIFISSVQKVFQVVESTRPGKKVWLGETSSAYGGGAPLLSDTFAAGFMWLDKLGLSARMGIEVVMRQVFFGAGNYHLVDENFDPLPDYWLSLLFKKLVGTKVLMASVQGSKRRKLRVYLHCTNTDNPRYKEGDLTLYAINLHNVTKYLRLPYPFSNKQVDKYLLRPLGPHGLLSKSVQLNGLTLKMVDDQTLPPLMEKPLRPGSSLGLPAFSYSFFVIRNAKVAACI
# UniProt P15692, 27-191 isoform 4 limits assumed: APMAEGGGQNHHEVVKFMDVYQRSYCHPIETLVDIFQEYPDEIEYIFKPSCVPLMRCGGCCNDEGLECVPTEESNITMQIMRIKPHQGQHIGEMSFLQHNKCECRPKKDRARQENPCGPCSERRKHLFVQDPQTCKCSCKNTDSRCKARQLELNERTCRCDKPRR
# Assay: Elisa assay for binding of β-FGF to heparin
# Conditions: read-out: IC50 FGF; inhibition of β-FGF binding to heparin
row,IC50 [µM],SMILES
1,5.8,O=C(O)CCCCCN1C(=O)/C(=C\c2ccc(-c3cccc(Cl)c3)o2)SC1=S

# Target: heparanase (H53) (Homo sapiens, UniProt Q9Y251, K307R)
# Assay: Heparanase activity inhibition (H53), DMB assay
# Conditions: not given
row,heparanase activity inhibition (H53) in addition to inhibition of pro-heparanase activation,SMILES
1,dual activity,O=C(O)CCCCCN1C(=O)/C(=C\c2ccc(-c3cccc(Cl)c3)o2)SC1=S

# Same assay, conditions: read-out: IC50 H53; heparanase activity inhibition (H53); NI = no inhibition
row,IC50 [µM],SMILES
1,10,O=C(O)CCCCCN1C(=O)/C(=C\c2ccc(-c3cccc(Cl)c3)o2)SC1=S

# Target: pro-heparanase (H60) (Homo sapiens, UniProt Q9Y251, K307R)
# Assay: Pro-heparanase activation in a cell-based assay (293 cells, DMB assay)
# Conditions: read-out: IC50 H60; inhibition of pro-heparanase activation (H60); Table 15
row,IC50 [µM],SMILES
1,0.58,O=C(O)CCCCCN1C(=O)/C(=C\c2ccc(-c3cccc(Cl)c3)o2)SC1=S

# Same assay, conditions: read-out: IC50 H60; inhibition of pro-heparanase activation; Table 7, 5-(5-Phenyl-furan-2-ylmethylene)rhodanine analogs
row,IC50 [µM],SMILES
1,0.58,O=C(O)CCCCCN1C(=O)/C(=C\c2ccc(-c3cccc(Cl)c3)o2)SC1=S
2,0.98,Cc1c(N2C(=O)/C(=C\c3ccc(-c4cccc([N+](=O)[O-])c4)o3)SC2=S)c(=O)n(-c2ccccc2)n1C
3,6,O=C(O)c1cccc(-c2ccc(/C=C3/SC(=S)N(c4cccc(Cl)c4)C3=O)o2)c1
4,3,Cc1c(N2C(=O)/C(=C\c3ccc(-c4cc(Cl)ccc4Cl)o3)SC2=S)c(=O)n(-c2ccccc2)n1C
5,7,CCCC(C(=O)O)N1C(=O)/C(=C\c2ccc(-c3ccc([N+](=O)[O-])cc3)o2)SC1=S (stereo not shown)
6,3,O=C(O)c1ccc(-c2ccc(/C=C3/SC(=S)N(c4cccc(C(F)(F)F)c4)C3=O)o2)cc1
7,4,O=C(O)c1cccc(-c2ccc(/C=C3/SC(=S)N(c4cccc(C(F)(F)F)c4)C3=O)o2)c1
8,2.5,O=C(O)c1ccc(-c2ccc(/C=C3/SC(=S)N(c4cccc(Cl)c4)C3=O)o2)cc1
9,14,NS(=O)(=O)c1ccc(-c2ccc(/C=C3/SC(=S)N(C4CCS(=O)(=O)C4)C3=O)o2)cc1 (stereo not shown)
10,1.8,O=C1/C(=C\c2ccc(-c3ccc(Cl)cc3)o2)SC(=S)N1CCS(=O)(=O)O
11,0.18,Cc1c(N2C(=O)/C(=C\c3ccc(-c4cccc(Cl)c4)o3)SC2=S)c(=O)n(-c2ccccc2)n1C
12,0.4,Cc1c(N2C(=O)/C(=C\c3ccc(-c4ccc(Cl)cc4Cl)o3)SC2=S)c(=O)n(-c2ccccc2)n1C
13,11,O=C(O)c1ccc(-c2ccc(/C=C3/SC(=S)N(C4CCCCC4)C3=O)o2)cc1
14,5.4,CN1C(=O)/C(=C\c2ccc(-c3cccc(Br)c3)o2)SC1=S
15,1.3,Cc1c(N2C(=O)/C(=C\c3ccc(-c4ccc(Cl)c(Cl)c4)o3)SC2=S)c(=O)n(-c2ccccc2)n1C
16,2,O=C(O)c1ccc(-c2ccc(/C=C3/SC(=S)N(c4cccc(F)c4)C3=O)o2)cc1
17,15,O=C(O)CC(C(=O)O)N1C(=O)/C(=C\c2ccc(-c3ccc([N+](=O)[O-])cc3)o2)SC1=S (stereo not shown)

# Same assay, conditions: read-out: IC50 H60; inhibition of pro-heparanase activation; Table 9, 5-Benzylidene-rhodanine analogs
row,IC50 [µM],SMILES
1,12,Cc1c(N2C(=O)/C(=C\c3ccc(Cl)cc3)SC2=S)c(=O)n(-c2ccccc2)n1C
2,39,O=C1/C(=C\c2ccc(Cl)cc2Cl)SC(=S)N1c1cccc(C(F)(F)F)c1
3,57,Cc1c(N2C(=O)/C(=C\c3c(F)cccc3Cl)SC2=S)c(=O)n(-c2ccccc2)n1C
4,9,O=C1/C(=C\c2ccccc2)SC(=S)N1c1cccc(O)c1
5,29,CCN1C(=O)/C(=C\c2ccc(O)c([N+](=O)[O-])c2)SC1=S
6,8,O=C(O)CCCCCCCCCCN1C(=O)/C(=C\c2cccc(Br)c2)SC1=S
7,118,O=C(O)CCCCCN1C(=O)/C(=C\c2ccc(Br)cc2)SC1=S
8,2,Cc1ccc(/C=C2/SC(=S)N(CCCC(=O)Nc3cc(Cl)cc(Cl)c3)C2=O)cc1
9,20,O=C1/C(=C\c2ccccc2)SC(=Nc2ccc(O)cc2)N1c1ccc(O)cc1
10,103,O=C1/C(=C\c2ccc([N+](=O)[O-])cc2)SC(=S)N1C1CCS(=O)(=O)C1 (stereo not shown)
11,8.5,C=CCN1C(=O)/C(=C\c2cc(Cl)ccc2O)SC1=S
12,8.5,CN1C(=O)/C(=C\c2cc(Cl)ccc2O)SC1=S

# Same assay, conditions: read-out: IC50 H60; inhibition of pro-heparanase activation; Table 10, 2-(thio)oxo-dihydro-pyrimidine-4,6-dione analogs
row,IC50 [µM],SMILES
1,9,CCOc1cccc(N2C(=O)C(=Cc3ccc(-c4cccc([N+](=O)[O-])c4)o3)C(=O)NC2=S)c1
2,5,Cc1ccc(N2C(=O)NC(=O)C(=Cc3ccco3)C2=O)cc1
3,19,O=C1NC(=O)N(c2ccc(Cl)cc2)C(=O)C1=Cc1ccc(-c2ccc(C(=O)O)c(Cl)c2)o1
4,25,Cc1cc(C)cc(N2C(=O)NC(=O)C(=Cc3ccc(-c4ccc(C(=O)O)c(Cl)c4)o3)C2=O)c1
5,42,Cc1ccc([N+](=O)[O-])cc1-c1ccc(C=C2C(=O)N(c3ccccc3)C(=S)N(c3ccccc3)C2=O)o1
6,49,CN1C(=O)C(=Cc2ccc(-c3ccccc3Cl)o2)C(=O)N(C)C1=O
7,2.3,CCOc1ccc(N2C(=O)NC(=O)C(=Cc3ccc(-c4ccc(C(=O)O)c(Cl)c4)o3)C2=O)cc1
8,3.5,O=C(O)c1cccc(-c2ccc(C=C3C(=O)N(c4ccccc4)C(=S)N(c4ccccc4)C3=O)o2)c1
9,19,O=C1NC(=O)N(c2ccc(Cl)cc2)C(=O)C1=Cc1ccc(-c2ccccc2Cl)o1

row,SMILES,IC50 [µM]
1,CN1C(=O)C(=Cc2ccc(-c3ccc(C(=O)O)c(O)c3)o2)C(=O)N(C)C1=O,18
2,Cc1ccc(N2C(=O)C(=Cc3ccc(-c4cccc(C(=O)O)c4)o3)C(=O)NC2=S)cc1,58
3,O=C1NC(=S)NC(=O)C1=Cc1ccc(-c2ccc(C(=O)O)c(O)c2)o1,6
4,Cc1c(-c2ccc(C=C3C(=O)NC(=O)NC3=O)o2)ccc([N+](=O)[O-])c1C,23
5,O=C1NC(=S)NC(=O)C1=Cc1ccc(-c2cccc(C(=O)O)c2)o1,23
6,CCOC(=O)c1cc(-c2ccc(C=C3C(=O)NC(=O)NC3=O)o2)ccc1Cl,40

# Target: VEGF (Homo sapiens, UniProt P15692)
# Assay: Elisa assay for binding of VEGF to heparin
# Conditions: read-out: IC50 VEGF; inhibition of VEGF binding to heparin
row,IC50 [µM],SMILES
1,4.2,O=C(O)CCCCCN1C(=O)/C(=C\c2ccc(-c3cccc(Cl)c3)o2)SC1=S

# Reference: patent publication US20050042213A1, “Methods and pharmaceutical compositions for modulating heparanase activation and uses thereof” (InSight Biopharmaceuticals Ltd., priority 2003, published 2005)
